Columns and labels:
[1] = target: His-PspA(1–186) (HD1–HD2–HD3) (E. coli) (UniProt P0AFM6); test: SEC; single proteins alone: 50-μl samples of 30 μM PspAFL or PspA fragments (20 μM PspF1–275), Superose 6, 4 °C, 20 mM Tris–HCl pH 8.0, 50 mM NaCl, 15 mM MgCl2; apparent oligomeric forms from calibration with globular proteins
[2] = target: His-PspAFL (full-length phage shock protein A) (E. coli) (UniProt P0AFM6); test: as above

Row | Substance | stoichiometry N [1] [subunits] | stoichiometry N [2] [subunits]
1 | His-PspA(1–186) (HD1–HD2–HD3) (from UniProt P0AFM6 1-186) (domain or fragment) | 2 | –
2 | His-PspAFL (full-length phage shock protein A) (from UniProt P0AFM6 1-222) (natural protein) | – | 90
